The IC50 is the concentration that inhibits the measured activity by half.

By UniProt entry, the sequences of proteins in these tests, tags left out.
UniProt Q16875, whole entry: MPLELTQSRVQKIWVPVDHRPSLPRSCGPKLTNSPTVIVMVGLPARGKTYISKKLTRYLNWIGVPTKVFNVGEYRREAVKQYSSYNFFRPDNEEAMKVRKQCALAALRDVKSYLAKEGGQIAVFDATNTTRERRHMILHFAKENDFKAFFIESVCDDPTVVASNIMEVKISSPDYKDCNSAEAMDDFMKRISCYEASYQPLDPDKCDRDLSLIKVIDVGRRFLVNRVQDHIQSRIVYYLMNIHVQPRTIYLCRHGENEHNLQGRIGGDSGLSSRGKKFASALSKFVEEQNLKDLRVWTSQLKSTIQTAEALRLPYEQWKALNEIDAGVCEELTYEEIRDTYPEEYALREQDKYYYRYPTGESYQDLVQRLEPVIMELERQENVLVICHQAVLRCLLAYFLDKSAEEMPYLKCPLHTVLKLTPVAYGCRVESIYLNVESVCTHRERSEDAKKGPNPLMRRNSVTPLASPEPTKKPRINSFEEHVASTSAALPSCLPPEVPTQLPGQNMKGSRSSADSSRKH
UniProt Q13882, whole entry: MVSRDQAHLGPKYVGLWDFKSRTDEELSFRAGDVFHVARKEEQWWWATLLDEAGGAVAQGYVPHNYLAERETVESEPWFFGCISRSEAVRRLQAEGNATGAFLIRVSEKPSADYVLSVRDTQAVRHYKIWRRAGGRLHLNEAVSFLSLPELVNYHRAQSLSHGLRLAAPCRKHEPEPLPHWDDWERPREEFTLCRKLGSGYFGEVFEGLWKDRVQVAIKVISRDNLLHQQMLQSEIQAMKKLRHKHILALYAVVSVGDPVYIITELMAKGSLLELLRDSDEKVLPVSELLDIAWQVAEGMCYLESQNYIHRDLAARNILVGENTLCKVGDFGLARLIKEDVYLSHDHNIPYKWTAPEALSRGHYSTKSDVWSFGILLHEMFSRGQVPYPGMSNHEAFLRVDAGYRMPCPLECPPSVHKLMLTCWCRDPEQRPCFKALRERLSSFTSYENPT

In assay [1] the target is Human recombinant His-tagged PFKFB3 (Homo sapiens, UniProt Q16875). Description: PFKFB3 IC50 determination assay (in vitro kinase assay, modified ADP-Glo system). The class given is biochemical. The following applies: read-out: PFKFB3 IC50, ATP 20 μM (Km), fructose-6-phosphate 2 μM (Km), 25 nM PFKFB3, 2 h, rt.
The target in assay [2] is BRK (PTK6 protein tyrosine kinase 6) (Homo sapiens, UniProt Q13882). Description: BRK (PTK6 protein tyrosine kinase 6) IC50 determination assay (in vitro kinase assay, ADP-Glo Max). The following applies: read-out: BRK IC50, ATP 1600 uM (Km), Poly(Glu, Tyr) 160 uM, 75 nM PTK6, 45 min, RT. The class given is biochemical. On the technique in general: ADP-Glo turns the ADP formed in a reaction into a luminescent signal.

For the compound `Cn1ccc2ccc(-c3cc(NC4CCN(c5cccnc5)C4)cc4nccnc34)cc21` [Example 167, 4-[(3S)-3-{[8-(1-Methyl-1H-indol-6-yl)quinoxalin-6-yl]amino}pyrrolidin-1-yl]pyrimidin-2-ol], the IC50 in assay [1] lay in the range of 1 to 10 µM.
On to `Cn1ccc2ccc(-c3cc(NC4CCC45CCNCC5)cc4nccnc34)cc21` (centres unmarked), for which the IC50 in assay [2] is 1 to 10 µM.

These data come from patent publication US20180148429A1 (SELVITA S.A., priority 2015, published 2018).
